Biological target: IRAK4 (Homo sapiens, UniProt Q9NWZ3)
Assay: LVL THP1 HTRF (THP1 Homogeneous Time Resolved Fluorescence)
Conditions: for LVL THP1 HTRF YMIN: THP1 cells, 18 h incubation with compound; for EC50: read-out: LVL THP1 HTRF EC50, THP1 cells, 18 h incubation with compound
Experimental: Cell culture media was prepared in a tissue culture hood in a sterile environment by adding 10% FBS and 1% Penicillin Streptomycin to 500 mL no phenol red RPMI 1640 media. The media was filtered through a Nalgene Bottle Top Filter and stored at 4° C.
For Homogenous Time Resolved Fluorescence (HTRF) assays, a Cisbio HTRF kit was used, which included: Lysis Buffer #1 4×, Blocking Reagent #3 100×, 20× Antibody 1 (Anti-IRAK4 d2), 20× Antibody 2 (Anti-IRAK4 k), and Detection Buffer.
The THP1 plates were prepared by the following method. For each dosing plate, a duplicate for CTG assay was prepared. Two THP-1 T-175 flasks could be used to plate one 384 well plate. The cells were collected from two T-175 flasks into 200 mL centrifuge tubes and spun down at 1200 rpm for 10 min. The supernatant was removed completely and cells were resuspended in 7.5 mL cell culture media. To 5 μL of the cell suspension was added 25 μL of media and 30 μL of Trypan Blue stain. The cells were counted using countess (automated cell counter, Thermo Fisher Scientific) twice and the viability and live cell count was recorded. The actual cell count was […] the live cell count. Based on the count, a cell suspension was prepared in colorless RPMI media for a final concentration of 7.5e6 cells/mL. Using Standard cassette multidrop combi, 20 μL of the 7.5e6 cells/mL cell stock was added to entire 384 well plate but for top half of column 1 (negative control) The multidrop combi was always primed to achieve a steady flow and washed after use with 20 mL de-ionized water followed by 20 mL alcohol. The cells were incubated in 5% CO2 incubator at 37° C.
Dosing was conducted using the following method. To dose assay plates and CTG plate was added 20 nL of compounds in DMSO using Echo (Beckman Coulter), and the plates were incubated at 37° C. for 18 h. The compound plates were spun at 1200 rpm for 1 min before dosing. The compound plate was sealed and properly stored during incubation.
After dosing, an HTRF assay was conducted using the following method. The treatment plates (IRAK4_HTRF) were centrifuged at 600 g for 10 min. Using CyBio Felix, Automated liquid handler (Analytikjena), 13 μL cell culture media was removed. To all columns, 7.5 μL lysis buffer was added, and an additional 7.5 μL of lysis buffer was added to column 1(top half, negative control). The plate was incubated on a shaker at room temperature for 2 h. The plate was spun down at 600 g for 5 min. Custom 20×IRAK4 Antibody obtained from CISBIO Anti-IRAK4-d2 (acceptor Ab) and Anti-IRAK4-K (donor Ab) were diluted to 1× antibody mix Using a multichannel repeater, 4 μL of 1× antibody mix was added to each wellThe plate was spun down at 600 g for 5 min and incubated in the dark at room temperature for 18 h The next day (after 18 hrs), HTRF assay plate was spun down at 600 g for 5 min and read at 665/615 nm using a Envision plate reader.

The chains behind the UniProt entries cited, without tags or fusion partners.
UniProt Q9NWZ3, whole entry: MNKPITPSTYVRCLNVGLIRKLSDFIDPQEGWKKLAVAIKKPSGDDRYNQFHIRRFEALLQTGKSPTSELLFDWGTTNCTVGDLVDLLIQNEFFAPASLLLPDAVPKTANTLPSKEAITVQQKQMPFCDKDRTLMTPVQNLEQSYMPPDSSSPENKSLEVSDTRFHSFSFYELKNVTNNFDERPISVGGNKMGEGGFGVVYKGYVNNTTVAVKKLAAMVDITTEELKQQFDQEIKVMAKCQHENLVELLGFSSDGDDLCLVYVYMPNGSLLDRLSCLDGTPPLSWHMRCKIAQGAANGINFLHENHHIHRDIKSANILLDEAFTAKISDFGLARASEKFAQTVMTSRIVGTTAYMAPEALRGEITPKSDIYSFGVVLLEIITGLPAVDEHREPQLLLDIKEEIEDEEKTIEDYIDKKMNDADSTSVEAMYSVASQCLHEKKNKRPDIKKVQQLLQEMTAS

Row | Structure (SMILES) | LVL THP1 HTRF YMIN [%] | EC50 [µM]
1 | COc1cc(C2CCN(CC[C@H]3CC[C@H](c4cn(-c5cnc(-n6ncc7cc(C#N)cnc76)cc5N[C@H](C)C#N)nn4)CC3)CC2)ccc1N1CCC(=O)NC1=O | 8.9 | 0.1
2 | C[C@H](C#N)Nc1cc(-n2ncc3cc(C#N)c(N4C[C@H]5C[C@@H]4CO5)nc32)ncc1-n1cc([C@H]2CC[C@H](CCN3CCC(c4ccc(C5(F)CCC(=O)NC5=O)cc4)CC3)CC2)nn1 (stereo partly drawn) | 1.6 | 0.0073
3 | C[C@H](C#N)Nc1cc(-n2ncc3cc(C#N)c(N)nc32)ncc1-n1cc([C@H]2CC[C@H](CCN3CCN(c4ccc(N5CCC(=O)NC5=O)cc4)[C@H](C)C3)CC2)nn1 | −3.1 | 0.0006
4 | C[C@H](C#N)Nc1cc(-n2ncc3cc(C#N)c(C4CC4)nc32)ncc1C(=O)N[C@H]1CC[C@H](CCN2CCN(c3ccc(C4CCC(=O)NC4=O)cc3)CC2)CC1 (stereo partly drawn) | 2.7 | 0.032
5 | CC(C)c1nc2c(cnn2-c2cc(N[C@H](C)C#N)c(C(=O)N[C@H]3CC[C@H](CCN4CCN(c5ccc(C6CCC(=O)NC6=O)cc5)CC4)CC3)cn2)cc1C#N (stereo partly drawn) | <0.5 | 0.048
6 | C[C@H](C#N)Nc1cc(-n2ncc3cc(C#N)c(N)nc32)ncc1C(=O)N[C@H]1CC[C@H](CCN2CCN(c3ccc(C4(C)CCC(=O)NC4=O)cn3)[C@@H](C)C2)CC1 (stereo partly drawn) | 34.7 | 0.355
